Experimental findings from PubChem BioAssay AID1947 (The Scripps Research Institute Molecular Screening Center, 2009) are described below.

Usually inhibition stands for the relative decrease from the control value, in per cent.

Only a part is listed here, and it is no random draw. Active and inactive are the calls of the source.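 Rule for the calls: active = inhibition above the screen mean inhibition plus 3 SD, computed separately per campaign (cut at about 18% in these data); inactive = the rest.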

The test system of the assay is Fam108B (ABHD17B) serine hydrolase [Mus musculus]. The assay is described as follows: mouse Fam108B serine hydrolase inhibitors, primary screen, counter-screen for RBBP9 inhibitor project, biochemical, fluorescence polarization (AID 1947).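 Note: inhibitors lower polarization as less probe binds the enzyme.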 The conditions noted are these: recombinant Fam108B, FP-Rh probe fluorescence polarization; at 9.51 µM; active compounds read high. (A counterscreen serves to expose hits that act by an unwanted route or on another target.)
Take `O=[N+]([O-])c1cc([N+](=O)[O-])c(-c2ccn[nH]2)s1`: the inhibition is inactive: 1.29%.

`ClCCSc1nnc(-c2cccnc2)o1`: the inhibition is inactive: -1.62%.

Take `CC(C)c1ccc(OP(=O)(Nc2ccccn2)Oc2ccccc2F)cc1` (stereo not drawn): the inhibition was inactive: 1.4%.

For the compound `Cc1ccc(OP(=O)(Nc2ccc([N+](=O)[O-])cn2)Oc2ccc(C)cc2)cc1`, the inhibition is inactive: -2.32%.

For `Cc1ccc2nc3c(c(C)c2c1)CC(C(Cl)Cl)S3` (stereo not drawn), the inhibition is inactive: -0.04%.

In the case of `C[As](=O)(O)c1cccc(C(=O)O)c1`, the inhibition was inactive: 4.9%.

`O=[As](O)(c1ccc(O)cc1)c1ccccc1O`: the inhibition is inactive: 1.42%.

`CCN(N=Nc1nonc1N)c1nonc1N`: the inhibition was inactive: 0.74%.

`O=[N+]([O-])c1cc([N+](=O)[O-])c(CCN2CCOCC2)c([N+](=O)[O-])c1`: the inhibition is active: 35.1%.

Take `Cc1cc(SC(NC(=O)c2ccc(F)cc2)C(Cl)(Cl)Cl)ncn1` (stereo not drawn): the inhibition is inactive: -1.13%.

Consider `CCOP(=O)(Nc1ccccc1)OCC`, for which the inhibition was inactive: -0.53%.

Take `Cc1ccc(NP(=O)(Oc2ccccc2F)Oc2ccccc2F)nc1`: the inhibition was inactive: 0.84%.

Regarding `CN(C(=O)Cc1ccc(Cl)c(Cl)c1)[C@H]1CCCC[C@@H]1N1CCCC1`, the inhibition was inactive: 6.91%.

For `O=P(Nc1nc2ccc(Cl)cc2s1)(c1ccccc1)c1ccccc1`, the inhibition is inactive: -1.73%.

Take `CC(=O)Nc1ccc([As](=O)(O)O)cc1`: the inhibition was inactive: 0.07%.

Turning to `O=C(O)c1ccccc1[As](=O)(O)O`, the inhibition was inactive: -0.44%.

For the compound `Oc1ccccc1CNc1ccccn1`, the inhibition is inactive: 3.75%.

Regarding `O=C(NC(Sc1ccncn1)C(Cl)(Cl)Cl)c1ccccc1` (stereo not drawn), the inhibition is inactive: -0.18%.

As for `Cc1c2non([O-])c-2c(C)[n+](=O)[n+]1[O-]`, the inhibition was inactive: 3.2%.

In the case of `Nc1cc(N)c2nonc2c1[N+](=O)[O-]`, the inhibition is inactive: -3.3%.

As for `CC(C)CC(=O)NC(Sc1ccc(Cl)cc1)C(Cl)(Cl)Cl` (stereo not drawn), the inhibition was inactive: 2.98%.

Turning to `CN1CCCC(OC(=O)C(c2ccccc2)c2ccccc2)C1` (stereo not drawn), the inhibition was inactive: -1.59%.

For `Clc1ccc(Cl)c(NC2=NCC(CBr)S2)c1` (stereo not drawn), the inhibition is inactive: 0.47%.

As for `COc1ccccc1OP(=O)(Nc1ccc(C)cn1)Oc1ccccc1OC`, the inhibition was inactive: 4.89%.

For `Cc1ccc(OP(=O)(Nc2nccs2)Oc2ccc(C)cc2)cc1`, the inhibition is inactive: 4.63%.

For `CN(C(=O)Cc1ccc(Cl)c(Cl)c1)[C@H]1CCCC[C@H]1N1CCCC1`, the inhibition is inactive: -3.73%.

Consider `Cc1ccc(N/C(=N/P(=O)(N2CCOCC2)N2CCOCC2)N2CCOCC2)cc1`, for which the inhibition was inactive: -0.13%.

For the compound `NC(=O)c1cc([N+](=O)[O-])cc([N+](=O)[O-])c1N`, the inhibition is inactive: 3.42%.

Turning to `CC1CCN(C(=O)Oc2c(Cl)cc(Cl)c3cccnc23)CC1`, the inhibition is inactive: -0.79%.

In the case of `CC(C)=N/N=C(\N)N[N+](=O)[O-]`, the inhibition was inactive: 0.41%.

Take `CN(C)C(=O)OCCc1n(C)cc[n+]1C`: the inhibition is inactive: 3.46%.

Consider `CCN(/C(=N/P(=O)(N1CCOCC1)N1CCOCC1)N1CCOCC1)c1ccc(OC)cc1`, for which the inhibition is inactive: -0.7%.

Regarding `Nc1ccc([As](=O)(O)c2ccc(N)cc2)cc1`, the inhibition was inactive: 1.61%.

For the compound `C[N+]1=C2C=CC=CC=C2SC12C([N+](=O)[O-])=CC([N+](=O)[O-])=C[C-]2[N+](=O)[O-]` (stereo not drawn), the inhibition is active: 18.4%.

As for `Cc1ccc(NP(=O)(Oc2ccccc2)Oc2ccccc2)nc1`, the inhibition is inactive: -1.72%.

Take `CCc1nc2c(n1)c1c(non1O)c1c2no[n+]1[O-]`: the inhibition is inactive: 6.68%.

As to `O=[N+]([O-])c1cc([N+](=O)[O-])c(CCNc2ccccc2)c([N+](=O)[O-])c1`, the inhibition was inactive: 15.6%.

For the compound `O=[N+]([O-])c1cccc2n[nH]nc12`, the inhibition is inactive: -1.22%.

With `CC(=O)N1C2C3N(C(C)=O)C1C1N(C(C)=O)C(C(N1C(C)=O)N3C(C)=O)N2C(C)=O`, the inhibition is inactive: 4.84%.

Turning to `COc1ccc(C2=NCC(CBr)S2)cc1` (stereo not drawn), the inhibition is inactive: 4.06%.

On to `O=[N+]([O-])c1cccc(NC2=NCC(CBr)S2)c1` (stereo not drawn), for which the inhibition is inactive: 4.11%.

In the case of `O=[N+]([O-])c1ncn(CCn2ncnc2[N+](=O)[O-])n1`, the inhibition was inactive: -3.9%.

On to `CC(C)(C)C(=O)NC(Sc1ccncn1)C(Cl)(Cl)Cl` (stereo not drawn), for which the inhibition is inactive: 0.72%.

As for `O=C(Nc1cc([As](=O)(O)O)ccc1O)c1ccccc1`, the inhibition is inactive: -0.56%.

On to `O=C(OC1CN2CCC1CC2)c1cccc(Cl)c1` (stereo not drawn), for which the inhibition was inactive: -0.24%.

On to `C(Cc1nn[nH]n1)Cc1nn[nH]n1`, for which the inhibition was inactive: -0.29%.

As to `Nc1ccc([As](=O)(O)c2ccc([N+](=O)[O-])cc2)cc1`, the inhibition was inactive: -1.55%.

As for `O=[As](O)(c1ccccc1)c1ccc(O)cc1`, the inhibition was inactive: 1.44%.

Regarding `O=[N+]([O-])c1ccc(O)c(/C=N/Nc2ccc([N+](=O)[O-])cc2[N+](=O)[O-])c1`, the inhibition was inactive: 2.69%.

For the compound `CC(=O)NC(SC(=S)N(C)C)C(Cl)(Cl)Cl` (stereo not drawn), the inhibition was inactive: 1.59%.

On to `O=[N+]([O-])c1ncn(CCn2cnc([N+](=O)[O-])n2)n1`, for which the inhibition was inactive: 3.85%.

Regarding `O=P(Nc1nc2ccccc2s1)(c1ccccc1)c1ccccc1`, the inhibition is inactive: -0.97%.

In the case of `C[C@H]1OP(=O)(Oc2ccccc2)[C@H](O)[C@H](O)[C@H]1N=[N+]=[N-]` (stereo partly drawn), the inhibition was inactive: 0.17%.

In the case of `O=P(Nc1ccccn1)(c1ccc(Br)cc1)c1ccc(Br)cc1`, the inhibition was inactive: 0.56%.

With `CN(C)C1(CNC(=O)c2ccc(Cl)c(S(N)(=O)=O)c2)CCCCC1`, the inhibition was inactive: -4.59%.

`c1nnnn1CCn1cnnn1`: the inhibition is inactive: 0.74%.

In the case of `CC(C)C(=O)NC(Sc1ccccc1)C(Cl)(Cl)Cl` (stereo not drawn), the inhibition is inactive: 4.35%.

Turning to `O=P(Nc1nccs1)(c1ccccc1)c1ccccc1`, the inhibition is inactive: -1.36%.

On to `CC(=O)Nc1ccc([As](=O)(O)O)c(O)c1`, for which the inhibition was inactive: -0.6%.

With `CC(=O)Nc1ccc(Oc2c([N+](=O)[O-])cc([N+](=O)[O-])cc2[N+](=O)[O-])cc1`, the inhibition was inactive: 3.45%.

On to `C[C@H]1OP(=O)(Oc2ccccc2)C[C@@H]2O[C@@H]21` (stereo partly drawn), for which the inhibition is inactive: 5.01%.

In the case of `C[C@@H]1C=CCP(=O)(Oc2ccccc2)O1` (stereo partly drawn), the inhibition is inactive: -2.68%.

For the compound `CC(=O)c1ccc(N2CC2c2ccncc2)cc1` (stereo not drawn), the inhibition was inactive: -6.55%.

In the case of `CC(C)(C)C(=O)NC(Sc1ccccc1)C(Cl)(Cl)Cl` (stereo not drawn), the inhibition is inactive: -1.65%.

On to `O=P1(Nc2nc3ccc(Cl)cc3s2)COc2ccccc2O1` (stereo not drawn), for which the inhibition is inactive: 3.47%.

With `CCOc1ccc(C2=NCC(CBr)S2)cc1` (stereo not drawn), the inhibition was inactive: 3.5%.

Take `Cc1ccccc1OP(=O)(Nc1ccccn1)Oc1ccccc1C`: the inhibition is inactive: -5.75%.

On to `CN(C)C(=O)Oc1noc2ccccc12`, for which the inhibition was inactive: -0.13%.

Consider `O=C(OC1CN2CCC1CC2)c1ccccc1` (stereo not drawn), for which the inhibition was inactive: -3.75%.

Take `CCC(=O)N1C2C3N(C(=O)CC)C1C1N(C(=O)CC)C(C(N1C(=O)CC)N3C(=O)CC)N2C(=O)CC`: the inhibition is inactive: -1.53%.

Regarding `COC(=O)c1cc2c(s1)N=C(c1ccccc1)N(C)P2(=O)N1CCOCC1` (stereo not drawn), the inhibition was inactive: 2.09%.

Regarding `CC(=O)NC(SC(=S)N(CC(C)C)CC(C)C)C(Cl)(Cl)Cl` (stereo not drawn), the inhibition is inactive: -2.96%.

Turning to `Cc1ccc(OP(=O)(Nc2ccccn2)Oc2ccc(C)cc2)cc1`, the inhibition is inactive: -1.16%.

In the case of `c1ccc(-c2nn[nH]n2)c(-c2nn[nH]n2)c1`, the inhibition is inactive: 4.5%.

Regarding `Cc1ccc(NP(=O)(Oc2cccc(C)c2)Oc2cccc(C)c2)nc1`, the inhibition was inactive: 3.97%.

In the case of `CCOC(=O)NC(Sc1ccccc1)C(Cl)(Cl)Cl` (stereo not drawn), the inhibition was inactive: 1.69%.

In the case of `CCNC(=S)/N=C(\N)N[N+](=O)[O-]`, the inhibition is inactive: 1.64%.

Turning to `O=C(NC1CCS(=O)(=O)C1)NP(=S)(Oc1ccccc1)Oc1ccccc1` (stereo not drawn), the inhibition is inactive: 0.99%.
